Experimental data reported in patent publication US9902713B2, “Neuroprotective compounds and use thereof” (BOARD OF REGENTS OF THE UNIVERSITY OF TEXAS SYSTEM, priority 2013, dated 2018).

What was measured:
blast-injured mice = test: Barnes maze after blast-mediated TBI; type: in vivo; details: single enantiomers; for percent time in escape area, probe test: IP from 24 hours after injury, 3 mg/kg/day
[1] = test system: newborn hippocampal neurons; test: In vivo neuroprotection assay: BrdU+ newborn hippocampal neurons; details: ICV 0.5 μL/h, 7 days, FIG. 2
[2] = test system: dopaminergic neurons within the substantia nigra; test: MPTP model of Parkinson's disease, TH+ neurons in SNc; type: in vivo, mice; details: IP, BID, 21 d, FIG. 3
degenerating axons = test: Silver staining of degenerating axons after blast-mediated TBI; details: single enantiomers, 3 mg/kg/day

Compound: COc1cccc(NCC(F)Cn2c3ccc(Br)cc3c3cc(Br)ccc32)n1 (single isomer, unassigned)
- percent quadrant time, probe test (blast-injured mice; 3 mg/kg/d IP): some protection at the margin of statistical significance
- percent target entry, probe test (blast-injured mice; 3 mg/kg/d IP): same deficit as blast-injured mice treated with vehicle
- learning (percent latency to escape) (blast-injured mice; 3 mg/kg/day from 24 hours after injury): learned significantly worse than sham-injury mice
- percent time in escape area, probe test (blast-injured mice): no efficacy
- percent time in escape area, probe test (blast-injured mice; listed as B): inactive
- neuroprotective activity of pure enantiomers ([1]; listed as (+)-enantiomer): little activity
- neuroprotective activity of pure enantiomers ([1]; listed as its enantiomer): no neuroprotective activity
- neuroprotection by single enantiomers [2]: indistinguishable from vehicle treatment
- axonal degeneration, CA1 stratum radiatum (degenerating axons): did not
- axonal degeneration, cerebellar molecular layer (degenerating axons): not
- silver staining in CA1, corpus callosum, thalamus, cortex, olfactory bulb, striatum, dentate gyrus, cerebellum (degenerating axons): prominent silver staining of degenerating axons
